Where two headings read alike, the source gives them in different places.

Amino acid sequences for entries named in this document (tags omitted).
UniProt Q9NWZ3, whole entry: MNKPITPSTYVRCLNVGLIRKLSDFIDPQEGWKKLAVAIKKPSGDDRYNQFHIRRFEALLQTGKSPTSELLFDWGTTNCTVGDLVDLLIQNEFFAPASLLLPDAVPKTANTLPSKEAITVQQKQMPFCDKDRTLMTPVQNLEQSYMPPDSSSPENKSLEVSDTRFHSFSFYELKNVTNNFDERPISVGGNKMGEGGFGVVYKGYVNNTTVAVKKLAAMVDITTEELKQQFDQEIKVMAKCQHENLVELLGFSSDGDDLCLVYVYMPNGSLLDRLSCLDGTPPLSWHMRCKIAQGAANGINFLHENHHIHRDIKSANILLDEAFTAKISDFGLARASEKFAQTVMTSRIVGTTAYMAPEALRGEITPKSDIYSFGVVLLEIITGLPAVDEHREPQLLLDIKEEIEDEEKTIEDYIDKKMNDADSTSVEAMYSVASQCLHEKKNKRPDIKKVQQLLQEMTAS

Series [1] addresses T1, IRAK4 (Homo sapiens, UniProt Q9NWZ3). Briefly: Degradation of IRAK4 in SU-DHL-2 cells (flow cytometry). In kind it is cell-based. Set-up: The degradation level of IRAK4 protein in SU-DHL-2 cell line by the compounds was detected by flow cytometry; endogenous in cells; host or cells: SU-DHL-2; OCI-LY3. In general terms: A flow cytometer gives signals particle by particle.
In series [2] the target is T1, IRAK4. The class given is cell-based. The settings on record: read-out: OCI-LY3 DC50; OCI-LY3 cells. Also on record: endogenous in cells; host or cells: OCI-LY3.
Series [3] has as its target T1, IRAK4. The experiment in a line: Degradation of IRAK4 in monocytes of human PBMCs (flow cytometry). The class given is cell-based. Also on record: endogenous in cells. The settings on record: read-out: DC50 in PBMC, 24 hours incubation.
The conditions of series [4]: Example 22 at 50 mpk.
[5] abbreviates: read-out: SU-DHL-2 DC50, 24 hours incubation.

Take `CC(OCC#Cc1cccc2c1n(C)c(=O)n2C1CCC(=O)NC1=O)C(=O)N1CCC2(CC1)CC(n1cc(NC(=O)c3cnn4ccc(N5C[C@H]6C[C@@H]5CO6)nc34)c(C(F)F)n1)C2` (stereo partly shown) [Example 11]: in series [1] (setting [5]), the DC50 was 3 nM. Take `Cn1c(=O)n(C2CCC(=O)NC2=O)c2cccc(C#CCO[C@H]3C[C@@H](C(=O)N4CCC5(CC4)CC(n4cc(NC(=O)c6cnn7ccc(N8C[C@H]9C[C@@H]8CO9)nc67)c(C(F)F)n4)C5)C3)c21` (stereo partly shown) [Example 20]: the DC50 in series [2] and in series [1] (setting [5]) was 4 nM in each case. Take `Cn1c(=O)n(C2CCC(=O)NC2=O)c2cccc(C#CCO[C@H]3C[C@H](C(=O)N4CCC5(CC4)CC(n4cc(NC(=O)c6cnn7ccc(N8C[C@H]9C[C@@H]8CO9)nc67)c(C(F)F)n4)C5)C3)c21` (stereo partly shown) [Example 36]: the DC50 in series [3] came to 0.8 nM; in series [1] (setting [5]), 5.6 nM. Turning to `Cn1c(=O)n(C2CCC(=O)NC2=O)c2cccc(C#CCOC(=O)N3CC(N4CCC5(CC4)CC(n4cc(NC(=O)c6cnn7ccc(N8C[C@H]9C[C@@H]8CO9)nc67)c(C(F)F)n4)C5)C3)c21` (stereo partly shown) [Example 21], the DC50 in series [1] (setting [5]) came out at 3 nM. For `Cn1c(=O)n(C2CCC(=O)NC2=O)c2cccc(C#CCOC3CN(C(=O)N4CCC5(CC4)CC(n4cc(NC(=O)c6cnn7ccc(N8C[C@H]9C[C@@H]8CO9)nc67)c(C(F)F)n4)C5)C3)c21` (stereo partly shown) [Example 14], the DC50 in series [2] is 4.4 nM; in series [1] (setting [5]) it was 4.6 nM.

Consider `Cn1c(=O)n(C2CCC(=O)NC2=O)c2cccc(C#CCCCC(=O)N3CCC4(CC3)CC(n3cc(NC(=O)c5cnn6ccc(N7C[C@H]8C[C@@H]7CO8)nc56)c(C(F)F)n3)C4)c21` (stereo partly shown) [Example 25], for which the DC50 in series [1] (24 hours incubation, read-out: SU-DHL-2 DC50) worked out at 6 nM. In the case of `Cn1c(=O)n(C2CCC(=O)NC2=O)c2cccc(C#CCC3CCN(C(=O)N4CCC5(CC4)CC(n4cc(NC(=O)c6cnn7ccc(N8C[C@H]9C[C@@H]8CO9)nc67)c(C(F)F)n4)C5)CC3)c21` (stereo partly shown) [Example 27], the DC50 in series [2] was 32 nM; in series [1] (setting [5]), 22 nM. `Cn1c(=O)n(C2CCC(=O)NC2=O)c2cccc(C#CCOC3CCN(C(=O)N4CCC5(CC4)CC(n4cc(NC(=O)c6cnn7ccc(N8C[C@H]9C[C@@H]8CO9)nc67)c(C(F)F)n4)C5)CC3)c21` (stereo partly shown) [Example 13]: the DC50 in series [3] stood at 2.22 nM; in series [2] it was 5 nM; in series [1] (setting [5]) it was 5.7 nM. `Cn1c(=O)n(C2CCC(=O)NC2=O)c2cccc(C#CCC3CN(C(=O)N4CCC5(CC4)CC(n4cc(NC(=O)c6cnn7ccc(N8C[C@H]9C[C@@H]8CO9)nc67)c(C(F)F)n4)C5)C3)c21` (stereo partly shown) [Example 26]: the DC50 amounted to 3.5 nM in series [2] and 2.9 nM in series [1] (setting [5]). For `Cn1c(=O)n(C2CCC(=O)NC2=O)c2cccc(C#CCCOC(=O)N3CCC4(CC3)CC(n3cc(NC(=O)c5cnn6ccc(N7C[C@H]8C[C@@H]7CO8)nc56)c(C(F)F)n3)C4)c21` (stereo partly shown) [Example 16], in that order: 5 nM and 5 nM. For `Cn1c(=O)n(C2CCC(=O)NC2=O)c2cccc(C#CCO[C@H]3CCN(C(=O)N4CCC5(CC4)CC(n4cc(NC(=O)c6cnn7ccc(N8C[C@H]9C[C@@H]8CO9)nc67)c(C(F)F)n4)C5)C3)c21` (stereo partly shown) [Example 19], in that order: 6 nM and 7 nM.

With `Cn1c(=O)n(C2CCC(=O)NC2=O)c2cccc(C#CCO[C@@H]3CCN(C(=O)N4CCC5(CC4)CC(n4cc(NC(=O)c6cnn7ccc(N8C[C@H]9C[C@@H]8CO9)nc67)c(C(F)F)n4)C5)C3)c21` (stereo partly shown) [Example 18], in series [1] (setting [5]), the DC50 stood at 6 nM. For `Cn1c(=O)n(C2CCC(=O)NC2=O)c2cccc(C#CCCN3CCC4(CC3)CC(n3cc(NC(=O)c5cnn6ccc(N7C[C@H]8C[C@@H]7CO8)nc56)c(C(F)F)n3)C4)c21` (stereo partly shown) [Example 22], in series [4], the “concentration levels in plasma and spleen compared with KT-474 at 150 mpk” value was “same concentration levels”.

The values above are taken from patent EP4656640A1, “IRAK4 DEGRADER AND USE THEREOF” (Shanghai Qilu Pharmaceutical Research and Development …, priority 2023, dated 2024).
